From article PMC9256669, “Monomethyl auristatin antibody and peptide drug conjugates for trimodal cancer chemo-radio-immunotherapy” (Nature Communications, 2022)

Experiments:
B16 tumors = test: Subcutaneous tumor therapy, ADC monotherapy, mouse survival; assay type: in vivo, C57BL/6 mice
B16 cells = test: Cell surface binding of Cy5-labeled ADCs by flow cytometry; assay type: cell-based, murine
Description: Vehicle 2.5 nmoles 5 nmoles Vehicle CDX3379- […]
tumor xenografts (tumor locations circled yellow). Mice i.v. injected with 2.5 nmoles Cy5 labeled CDX3379-MMAE. White light imaged mouse on far left. Cy5 captured images at […]
days post injection. White light images (top) and Cy5 images (bottom) captured. Images […]
orthotopic tongue tumors.
48 hr. Imaged tongue delineated by dashed gray line. Images representative of 3 […]
by flow cytometry. Mean fluorescent intensity measured and subtracted from baseline fluorescence of saline incubated cells for each cell line. Data representative of 3 […]
pseudocolor scale bar shown far right. Gut auto-fluorescence indicated by blue arrows.
Images representative of 2 mice/group. Source data are provided in Source Data file.

“Cetux-MMAE: cetuximab (anti-human EGFR antibody)-MMAE conjugate, negative control ADC for murine tumors” was tested, and the “anti-tumor activity as measured by mouse survival” value (B16 tumors) was “did not significantly increase survival” and the “cell surface binding to B16 cells” value (B16 cells) was “did not appreciably attach”.
